S100A4 MyoIIA: blocks human S100A4 binding to myosin IIA peptide. P26447. S100A4/TAMRA-MyoIIA peptide fluorescence polarization. inhibition, % at 10.7 µM. actives 0.14% (n = 360,000). AID 652163;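 active means mean inhibition of at least 70% across replicates, with every replicate also reaching that level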
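Compound dosing: one dose per compound; test system: human S100A4 monomer with TAMRA-labelled myosin IIA peptide; probe or stimulus: TAMRA-labelled myosin IIA heavy-chain peptide probe, 5 nM; medium: HEPES buffer with Ca2+, pH 7.2; schedule: 5 min incubation before reading; benchmarks: neutral control DMSO, positive control TFP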
SIRT5 inh: inhibitors of human sirtuin-5 desuccinylase. Q9NXA8. Purified SirT5, succinyl-peptide AMC, trypsin-coupled fluorescence. inhibition, % at 15 µM. actives 1.1% (n = 330,000); in the data active means inhibition above about 15%
PDI inh: inhibitors of human protein disulfide isomerase. PDI insulin aggregation turbidity, A650, 90 min. actives 0.052% (n = 350,000). P07237. inhibition, % at 10 µM;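 active means mean inhibition across replicates of 30% or more, whatever share of single replicates reach that level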
FGF22 binding: binders of recombinant human FGF22 by thermal shift; Q9HCT0; SYPRO orange fluorescence; percent of sucrose octasulfate shift, DMSO zero; activity (Tm shift, normalised), % at 9.99 µM; actives 1.5% (n = 340,000);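 active means mean Tm shift, scaled 0 neutral to 100 positive control, at about 1.3% or above, every replicate too, limit read from the data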
UUG fidelity: yeast start codon fidelity modulation | S. cerevisiae UUG-firefly luciferase reporter, luminescence/redox ratio | activity score, % at 18.7 µM | hit rate 0.13% among 350,000 | AID 602363;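 active means replicate mean at a twofold rise or more, about +100% in these data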;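 further: firefly luciferase made from a UUG start codon reports start codon fidelity; reporter light over untreated wells divided by growth signal over untreated wells; some hits fall short of that in this replicate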
ERp5 inh: ERp5 (human) disulfide isomerase inhibition; inhibition, % at 9.99 µM; Q15084; AID 651711; actives 0.05% (n = 350,000); ERp5 insulin aggregation, absorbance 650 nm, 90 min;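 active means mean replicate inhibition above about 25%, with every replicate also reaching it, limit read from the data, passing the limit was not always enough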
* = called active by the depositor; . = not tested or not shown. Rows were chosen to be rich in hits. Some 2.2% of all compounds tested hit in one or more screens of this group.

SMILES	S100A4 MyoIIA	SIRT5 inh	PDI inh	FGF22 binding	UUG fidelity	ERp5 inh
C[C@@H]1CN([C@@H](C)CO)C(=O)CCCn2nncc2CO[C@H]1CN(C)Cc1ccccc1O	-11	-1	.	.	.	3
CC(=O)c1ccc2c(c1)C1C=CCC1C(C(=O)O)N2 (stereo unspecified)	-5	32*	14	44*	.	1
CC(=O)c1ccc2c(c1)C1C=CCC1C(c1ccncc1)N2 (stereo unspecified)	.	.	-10	.	-1	.
Oc1c(Br)cc(Br)cc1C=NCc1ccc(F)cc1	0	-4	1	43*	.	2
N/C(=N\OC(=O)CCCOc1ccccc1)c1ccc([N+](=O)[O-])cc1	3	0	-2	43*	.	1
O=C(Nc1ccc(Cl)cc1)c1ccc(OCC2CCCO2)cc1 (stereo unspecified)	0	-1	4	0	.	4
O=C(Nc1nc(-c2ccc(Cl)cc2Cl)cs1)c1ccc(OCC2CCCO2)cc1 (stereo unspecified)	0	112*	6	0	-13	3
C[C@@H]1CN([C@@H](C)CO)C(=O)Cc2cc(NC(=O)CCN3CCOCC3)ccc2O[C@H]1CN(C)Cc1ccc(-c2ccccc2)cc1	-5	9	.	0	.	1
COc1ccc2c3c([nH]c2c1)[C@H](CO)N(C(=O)C1CCCC1)CC31CN(Cc2cccc(F)c2)C1	.	.	.	0	.	.
N#CC1(Nc2ccc(C(=O)O)cc2)CCCC1	-3	0	4	0	.	13
N#CC1(Nc2cccc(Cl)c2)CCCC1	-1	.	-5	43*	-22	13
CCCC#Cc1cnc2c(c1)C(=O)N([C@H](C)CO)C[C@@H](C)[C@H](CN(C)C(=O)Nc1ccccc1OC)O2	2	2	.	0	14	6

Brought forward from above: five compounds, then new ones.
SMILES	S100A4 MyoIIA	SIRT5 inh	PDI inh	FGF22 binding	UUG fidelity	ERp5 inh
C[C@@H]1CN([C@@H](C)CO)C(=O)Cc2cc(NC(=O)CCN3CCOCC3)ccc2O[C@H]1CN(C)Cc1ccc(-c2ccccc2)cc1	-5	9	.	0	.	1
COc1ccc2c3c([nH]c2c1)[C@H](CO)N(C(=O)C1CCCC1)CC31CN(Cc2cccc(F)c2)C1	.	.	.	0	.	.
N#CC1(Nc2ccc(C(=O)O)cc2)CCCC1	-3	0	4	0	.	13
N#CC1(Nc2cccc(Cl)c2)CCCC1	-1	.	-5	43*	-22	13
CCCC#Cc1cnc2c(c1)C(=O)N([C@H](C)CO)C[C@@H](C)[C@H](CN(C)C(=O)Nc1ccccc1OC)O2	2	2	.	0	14	6
CCCNC(=O)Nc1ccc2c(c1)C(=O)N(C)C[C@H](OC)[C@H](C)CN(C(C)=O)[C@@H](C)CO2	7	-1	.	0	-21	-3
COc1cc(CCCN2C(N)=NC[C@@H]2c2ccccc2)cc(OC)c1OC	9	-3	1	0	-25	2
CCC(C)[C@H]1CN=C(N)N1CCCc1cc(OC)c(OC)c(OC)c1 (stereo partly specified)	-4	23*	-4	0	-4	1
COc1ccc(S(=O)(=O)N(C)C[C@@H]2OCCCC[C@H](C)Oc3ccc(NC(=O)CCCN(C)C)cc3C(=O)N([C@@H](C)CO)C[C@H]2C)cc1	1	0	.	-1	18	-2
C[C@H](CO)N1C[C@H](C)[C@@H](CN(C)S(=O)(=O)c2ccc(F)cc2)Oc2ccc(NC(=O)Nc3ccccc3)cc2CC1=O	-82	5	.	0	2	0
CCc1nnc(NS(=O)(=O)c2ccc(NC(=O)/C=C/c3ccccc3Cl)cc2)s1	1	11	-2	1.8*	.	-6
CCc1nnc(NS(=O)(=O)c2ccc(NC(=O)c3ccccc3C)cc2)s1	5	2	-1	43*	-11	-2
CCc1nnc(NS(=O)(=O)c2ccc(NC(=O)C(c3ccccc3)c3ccccc3)cc2)s1	-1	1	8	1.5*	.	4
CCc1nnc(NS(=O)(=O)c2ccc(NC(=O)c3ccccc3)cc2)s1	-2	6	2	0	6	8
CN(C)C(=O)c1cccc(-c2ccc([C@@H]3[C@H](CO)N4C(=O)CN(C(=O)C5CCCC5)C[C@@H]34)cc2)c1	0	-2	.	.	.	4
CN(CC(=O)O)Cc1oc(CO)cc(=O)c1O	6	.	8	44*	.	-8
COc1ccc(C(CNC(=O)c2cccc(S(=O)(=O)N3CCc4ccccc43)c2)N(C)C)cc1 (stereo unspecified)	-4	.	3	43*	-7	4
COc1ccc(C(CNC(=O)c2cccc(S(=O)(=O)N3CCCCC3)c2)N2CCCC2)cc1 (stereo unspecified)	4	24*	-4	0	4	4
O=C(Nc1nccs1)C1CC(=O)N(Cc2ccco2)C1 (stereo unspecified)	2	-3	-2	43*	.	6
COc1ccc2c(c1)[C@]1(C(=O)N2C)C2=C(CCCC2=O)Oc2cc(C)oc(=O)c21	-1	.	.	43*	.	1
CO[C@@H]1CN(C)C(=O)c2cc(NS(=O)(=O)c3ccc(-c4ccccc4)cc3)ccc2OC[C@H](C)NC[C@@H]1C	0	3	.	0	-10	-2
O=C(Nc1ccc(F)cc1)C1CC(=O)n2ncnc2N1 (stereo unspecified)	-2	0	12	43*	.	-4
Cc1cccc(Oc2ccc(Cl)cc2N)c1	-1	112*	-2	0	-6	-7
Nc1cc(Cl)ccc1Oc1ccccc1	.	.	3	.	-24	.
C[C@@H]1CN([C@@H](C)CO)S(=O)(=O)c2ccc(C#CC(C)(C)O)cc2O[C@@H]1CN(C)C(=O)C1CCCCC1	11	0	.	0	6	0
Cc1cc(=O)[nH]c2c1c(C)nn2-c1ccccc1	.	.	11	.	-10	.
Cc1nn(-c2ccccc2)c2[nH]c(=O)cc(C(F)(F)F)c12	2	76*	-5	42	-11	1
CCOc1ccc(-c2c(C(=O)N/N=C/c3c[nH]c4ccccc34)nnn2-c2nonc2N)cc1	0	5	15	43*	-7	7
CCOc1cccc(-c2c(C(=O)N/N=C/c3ccc(C)o3)nnn2-c2nonc2N)c1	1	8	4	0	-8	27*
COC(=O)[C@@H]1[C@@H](CO)[C@@H]2Cn3c(cccc3=O)[C@@H]2N1C(=O)C1CC1	22	1	.	0	.	2
COC(C(=O)N/N=C(\C)c1ccc(C)cc1)c1ccccc1 (stereo unspecified)	-4	-3	-1	0	3	-1
COC(=O)[C@H](Cc1ccccc1)NC(=O)NCc1ccc(C)cc1	3	0	1	0	-2	3
COC(C(=O)NCc1ccc(C)cc1)c1ccccc1 (stereo unspecified)	3	1	16	43*	.	-4
Cc1ccc(CNC(=O)N[C@@H](Cc2ccccc2)C(=O)O)cc1	4	17*	6	0	-3	-2
CCCN1C[C@@H](C)[C@@H](OC)CN(C)C(=O)c2cc(NC(=O)C3CC3)ccc2OC[C@H]1C	3	7	.	0	2	5
COc1ccc([Si](C)(C)[C@@H]2[C@@H](CCO)O[C@]3(C(=O)N(Cc4ccc(NC(=O)[C@H](C)O)cc4)c4ccccc43)[C@H]2C)cc1	-9	3	.	0	0	-1
COc1ccc([Si](C)(C)[C@H]2[C@H](CCO)O[C@@]3(C(=O)N(Cc4cccc(NC(=O)[C@H](C)O)c4)c4ccccc43)[C@@H]2C)cc1	-20	3	.	2.9*	-9	0
